Laboratory results as given in patent publication US11591325B2, “2-polysubstituted aromatic ring-pyrimidine derivatives, preparation and medical application thereof” (ZHEJIANG UNIVERSITY, priority 2016, dated 2023).

The chains behind the UniProt entries cited, without tags or fusion partners.
UniProt O14757, whole entry: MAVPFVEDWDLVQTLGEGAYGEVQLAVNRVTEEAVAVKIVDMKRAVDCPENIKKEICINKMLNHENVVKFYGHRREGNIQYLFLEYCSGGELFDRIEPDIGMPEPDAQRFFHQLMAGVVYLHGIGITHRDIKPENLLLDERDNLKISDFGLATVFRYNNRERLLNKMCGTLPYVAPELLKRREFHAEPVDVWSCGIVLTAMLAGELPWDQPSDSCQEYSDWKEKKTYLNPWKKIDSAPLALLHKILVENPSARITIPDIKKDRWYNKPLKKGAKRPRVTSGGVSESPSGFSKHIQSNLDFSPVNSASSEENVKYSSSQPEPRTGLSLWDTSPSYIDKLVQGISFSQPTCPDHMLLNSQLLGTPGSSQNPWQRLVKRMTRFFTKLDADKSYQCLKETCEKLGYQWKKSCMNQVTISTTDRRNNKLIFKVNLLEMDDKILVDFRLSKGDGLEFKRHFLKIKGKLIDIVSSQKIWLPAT

Target: Chk1 protein kinase (Homo sapiens, UniProt O14757)
Assay: Chk1 enzyme inhibitory activity, ADP-Glo kit
Type: biochemical
Details: read-out: Chk1 IC50, bound with unit printed in the cell, Table 2 >10 μM or <1 μM

SMILES | IC50 [nM]
CNc1nc(Nc2cnc(C#N)c(O[C@@H]3CCCNC3)c2)ncc1C(F)(F)F [Compound 47, (R)—N^4-methyl-5-trifluoromethyl-N^2-(2-cyano-3-(piperidin-3-oxy)pyridin-5-yl)-2,4-diaminopyrimidine] | < 1000
CNc1nc(Nc2cnc(C#N)c(NC3CCNCC3)c2)ncc1C(F)(F)F | < 1000
CNc1nc(Nc2cnc(C#N)c(O[C@H]3CCCNC3)c2)ncc1C(F)(F)F | < 1000
